Patent publication US7390873B2, “Antimicrobial cationic peptides” (University of British Columbia, priority 1995, dated 2008)
Converted amounts (≈) assume the structure as drawn. Where a SMILES comes first, the peptide text is derived from it. Where no end group is shown, it is not given here. [ ]: non-standard residue; d: D form.

Tests used:
[1] = system: Salmonella typhimurium 14028S; format: cell-based; settings: for MIC S. typhimurium: 24 h
[2] = system: Salmonella typhimurium 14028S; assay: Relative MIC of crude preparations of recombinant peptides; format: cell-based; settings: for Gram-negative activity relative to indolicidin: from MICs of crude preparations of recombinant peptides
Source text: Expression and purification of various cationic peptides has previously been described (Hancock et al., U.S. Ser. No. 08/575,052, incorporated herein by reference, and Gene, 134 (1993) 7-13). In order to recombinantly express various antimicrobial peptides described below, oligonucleotides representing both strands of DNA encoding the various peptides were synthesized on an Applied Biosystems 392 DNA/RNA synthesizer using conventional methods. After annealing of the strands of DNA, the resulting DNA fragments were cloned into the Staphyloccus aereus expression vector pRIT5. Following transformation of the various clones into E. Coli DH5α, the recombinant plasmids were purified and sequenced and then electroporated (Bio Rad Gene Pulser Transfection Apparatus) into S. aereus K147.

[3] = system: Salmonella typhimurium 14028S; assay: Screening of recombinant clones, modified broth MIC assay; settings: peptide preparation from clone; 8-well doubling dilution; 24 hours

Compound	MIC S. typhimurium [1]	other results
CC[C@H](C)[C@H](N)C(=O)N[C@@H](CC(C)C)C(=O)N[C@@H](CCCCN)C(=O)N[C@@H](CCCCN)C(=O)N[C@@H](Cc1c[nH]c2ccccc12)C(=O)N1CCC[C@H]1C(=O)N[C@@H](Cc1c[nH]c2ccccc12)C(=O)N[C@@H](Cc1c[nH]c2ccccc12)C(=O)N1CCC[C@H]1C(=O)N[C@@H](Cc1c[nH]c2ccccc12)C(=O)N[C@@H](CCCNC(=N)N)C(=O)N[C@@H](CCCNC(=N)N)C(=O)N[C@@H](CCCCN)C(=O)OC [CP-11C] (H-ILKKWPWWPWRRK-OMe)	1 µg/mL (≈ 0.528 µM)	–
CC[C@@H](C)[C@@H](N)C(=O)N[C@@H](CC(C)C)C(=O)N[C@@H](CCCCN)C(=O)N[C@@H](CCCCN)C(=O)N[C@@H](Cc1c[nH]c2ccccc12)C(=O)N1CCC[C@H]1C(=O)N[C@@H](Cc1c[nH]c2ccccc12)C(=O)N[C@@H](Cc1c[nH]c2ccccc12)C(=O)N1CCC[C@H]1C(=O)N[C@@H](Cc1c[nH]c2ccccc12)C(=O)N[C@@H](CCCNC(=N)N)C(=O)N[C@@H](CCCNC(=N)N)C(=O)N[C@@H](CCCCN)C(=O)OC [CP-11DC] (H-[dI]LKKWPWWPWRRK-OMe; N-terminus assumed)	2 µg/mL (≈ 1.06 µM)	–
CC[C@@H](C)[C@@H](N)C(=O)N[C@@H](CC(C)C)C(=O)N[C@@H](CCCCN)C(=O)N[C@@H](CCCCN)C(=O)N[C@@H](Cc1c[nH]c2ccccc12)C(=O)N1CCC[C@H]1C(=O)N[C@@H](Cc1c[nH]c2ccccc12)C(=O)N[C@@H](Cc1c[nH]c2ccccc12)C(=O)N1CCC[C@H]1C(=O)N[C@@H](Cc1c[nH]c2ccccc12)C(=O)N[C@@H](CCCNC(=N)N)C(=O)N[C@@H](CCCNC(=N)N)C(=O)N[C@@H](CCCCN)C(=O)O [CP-11D] (H-[dI]LKKWPWWPWRRK-OH)	2 µg/mL (≈ 1.06 µM)	–
CC[C@H](C)[C@H](N)C(=O)N[C@@H](CC(C)C)C(=O)N1CCC[C@H]1C(=O)N[C@@H](Cc1c[nH]c2ccccc12)C(=O)N[C@@H](CCCCN)C(=O)N[C@@H](Cc1c[nH]c2ccccc12)C(=O)N1CCC[C@H]1C(=O)N[C@@H](Cc1c[nH]c2ccccc12)C(=O)N[C@@H](Cc1c[nH]c2ccccc12)C(=O)N1CCC[C@H]1C(=O)N[C@@H](Cc1c[nH]c2ccccc12)C(=O)N[C@@H](CCCNC(=N)N)C(=O)N[C@@H](CCCNC(=N)N)C(=O)OC [Indolicidin-C]	2 µg/mL (≈ 1.04 µM)	–
CC[C@@H](C)[C@@H](N)C(=O)N[C@@H](CC(C)C)C(=O)N1CCC[C@H]1C(=O)N[C@@H](Cc1c[nH]c2ccccc12)C(=O)N[C@@H](CCCCN)C(=O)N[C@@H](Cc1c[nH]c2ccccc12)C(=O)N1CCC[C@H]1C(=O)N[C@@H](Cc1c[nH]c2ccccc12)C(=O)N[C@@H](Cc1c[nH]c2ccccc12)C(=O)N1CCC[C@H]1C(=O)N[C@@H](Cc1c[nH]c2ccccc12)C(=O)N[C@@H](CCCNC(=N)N)C(=O)N[C@@H](CCCNC(=N)N)C(=O)OC [Indolicidin-DC]	4 µg/mL (≈ 2.08 µM)	–
CC[C@@H](C)[C@@H](N)C(=O)N[C@@H](CC(C)C)C(=O)N1CCC[C@H]1C(=O)N[C@@H](Cc1c[nH]c2ccccc12)C(=O)N[C@@H](CCCCN)C(=O)N[C@@H](Cc1c[nH]c2ccccc12)C(=O)N1CCC[C@H]1C(=O)N[C@@H](Cc1c[nH]c2ccccc12)C(=O)N[C@@H](Cc1c[nH]c2ccccc12)C(=O)N1CCC[C@H]1C(=O)N[C@@H](Cc1c[nH]c2ccccc12)C(=O)N[C@@H](CCCNC(=N)N)C(=O)N[C@@H](CCCNC(=N)N)C(=O)O [Indolicidin-D]	4 µg/mL (≈ 2.1 µM)	–
CC[C@H](C)[C@H](N)C(=O)N[C@@H](CC(C)C)C(=O)N1CCC[C@H]1C(=O)N[C@@H](Cc1c[nH]c2ccccc12)C(=O)N[C@@H](CCCCN)C(=O)N[C@@H](Cc1c[nH]c2ccccc12)C(=O)N1CCC[C@H]1C(=O)N[C@@H](Cc1c[nH]c2ccccc12)C(=O)N[C@@H](Cc1c[nH]c2ccccc12)C(=O)N1CCC[C@H]1C(=O)N[C@@H](Cc1c[nH]c2ccccc12)C(=O)N[C@@H](CCCNC(=N)N)C(=O)N[C@@H](CCCNC(=N)N)C(=O)O [Indolicidin-R, reference compound]	–	Gram-negative activity relative to indolicidin [2]: 1X; Wells of doubling dilution series in which growth of the test organism was prevented [3]: first; MIC S. typhimurium 14028S [1]: 16 µg/mL (≈ 8.39 µM)
FFKKFPFFPFRRK [CP-24]	8 µg/mL	–
ILKKWPWWPWKWKK [CP-13]	4 µg/mL	–
ILKKWPWWPWRRK [CP-11]	2 µg/mL	–
ILPWKKWPWWRWRR [CP-3R]	–	Activity against gram-negative bacteria compared with indolicidin-R ([2]; MIC assay): increased activity; Gram-negative activity relative to indolicidin [2]: 4X; Wells of doubling dilution series in which growth of the test organism was prevented [3]: first and second; MIC S. typhimurium 14028S [1]: 8 µg/mL
ILPWKWPWYVRR [CP-IA]	>32 µg/mL	–
